# Measured values published in PubChem BioAssay.
# The list shows a part of the results, in another mix than the full data. The source made the active and inactive calls. No stated cut-off is given here; in the data, active means inhibition above about 28%; inactive means the rest.
# Experiment: StAR promoter reporter inhibitors, counter-screen for LRH-1 inverse agonist project, cell-based, luminescence, high throughput (AID 651611)
# Conditions: StAR promoter luciferase reporter counterscreen, at 3.6 µM, hits give high values
smiles,measurement,value
O=[N+]([O-])c1cc([N+](=O)[O-])c(-c2cnn(-c3ccccc3)c2)c([N+](=O)[O-])c1,inhibition,inactive: 15.1%
